Here are results for two compounds from patent US20260042769A1, “TRIARYL AGONISTS OF ALPHA-2 ADRENERGIC RECEPTORS” (ALCEPTOR THERAPEUTICS, INC., priority 2023, published 2026).

Sequences of proteins named here, by UniProt entry; tags and fusion partners are left off.
UniProt P18089, whole entry: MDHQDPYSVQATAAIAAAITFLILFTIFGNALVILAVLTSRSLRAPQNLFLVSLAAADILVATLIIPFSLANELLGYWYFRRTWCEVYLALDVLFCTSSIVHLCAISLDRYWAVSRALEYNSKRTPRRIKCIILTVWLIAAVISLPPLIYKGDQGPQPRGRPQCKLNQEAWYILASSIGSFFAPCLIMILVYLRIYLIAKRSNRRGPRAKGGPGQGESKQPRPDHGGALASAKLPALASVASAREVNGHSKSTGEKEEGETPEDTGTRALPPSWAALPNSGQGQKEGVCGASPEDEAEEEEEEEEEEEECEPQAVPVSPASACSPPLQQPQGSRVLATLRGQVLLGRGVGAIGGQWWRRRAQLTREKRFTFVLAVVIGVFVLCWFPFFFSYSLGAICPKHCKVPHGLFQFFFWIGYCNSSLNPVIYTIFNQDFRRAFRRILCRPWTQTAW

The target in the assay is human ADRA2B receptor (Homo sapiens, UniProt P18089). The assay can be described thus: ADRA2B arrestin agonist assay. The settings on record: read-out: Beta-Arrestin - Human Alpha2B EC50; CHO-K1 cells stably expressing human ADRA2B.

Structures are written as SMILES.

For `Cc1cccc([C@H](Cc2ccn(C3CC3)n2)c2c[nH]cn2)c1C`, the half-maximal effective concentration (EC50) is less than 10 nM.
For `Cc1nccc(C[C@@H](c2c[nH]cn2)c2cccc3c2OCCCO3)n1`, the EC50 lay within 50 to 500 nM.

Usually EC50 stands for the midpoint of the concentration-response curve.
